The record followed here is patent US7267949B2, “Composition comprising methylphenidate and another drug” (Celltech Pharma Europe Limited, priority 1995, dated 2007).

Protein sequences, listed by entry. Tags and fused reporters are not part of them.
UniProt P11712, whole entry: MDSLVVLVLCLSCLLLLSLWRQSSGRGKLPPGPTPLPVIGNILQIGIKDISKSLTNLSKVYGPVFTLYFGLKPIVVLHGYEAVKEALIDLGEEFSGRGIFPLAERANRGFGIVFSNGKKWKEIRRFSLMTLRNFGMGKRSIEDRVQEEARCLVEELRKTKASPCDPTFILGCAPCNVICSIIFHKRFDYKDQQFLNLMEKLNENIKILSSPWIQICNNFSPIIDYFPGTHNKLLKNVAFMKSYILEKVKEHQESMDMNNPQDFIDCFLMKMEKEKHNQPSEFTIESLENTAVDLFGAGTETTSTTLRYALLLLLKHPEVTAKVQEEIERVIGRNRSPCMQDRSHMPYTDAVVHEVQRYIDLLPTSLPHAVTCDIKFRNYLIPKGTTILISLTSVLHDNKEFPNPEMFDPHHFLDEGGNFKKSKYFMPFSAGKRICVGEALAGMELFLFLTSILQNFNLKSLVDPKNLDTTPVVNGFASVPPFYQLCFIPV

The data set addresses P450 Isozyme 2C9 (Homo sapiens, UniProt P11712). The data set can be described thus: Tolbutamide hydroxylase activity in human microsome preparations. As to conditions: standard inhibitor at 100 μM, human microsomes.

Where only a bound is given, the exact number is not on record here.

Take Sulphaphenazole: the “% Inhibition of Enzyme Activity (Tolbutamide hydroxylase, 2C9)” value was >90%.
